## Apparent affinities of Ab-14 variants for a coronavirus HR2 peptide

From the AlphaSeq antibody data of Li et al. 2023 (doi:10.1038/s41467-023-39022-2), copy in the FLAb collection.

Target peptide (SARS-CoV-2 spike, HR2 region): PDVDLGDISGINAS

The variants keep the light chain, the linker and the frameworks of Ab-14 (scFv order VH, a 15-residue (Gly4Ser)3 linker, VL).
VH: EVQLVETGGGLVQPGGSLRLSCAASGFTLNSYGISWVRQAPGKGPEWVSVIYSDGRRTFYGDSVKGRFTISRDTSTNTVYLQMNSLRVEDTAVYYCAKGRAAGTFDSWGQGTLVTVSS
VL: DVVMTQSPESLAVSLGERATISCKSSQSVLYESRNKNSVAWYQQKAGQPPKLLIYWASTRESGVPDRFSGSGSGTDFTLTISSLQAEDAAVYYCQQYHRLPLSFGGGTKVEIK

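The variants were designed computationally from a first round of random CDR variants and then made and measured. Group labels follow the data file (En: ensemble of fine-tuned language models; HC: hill climbing; Gen: genetic algorithm; Gibbs: Gibbs sampling; a sequence that several methods proposed may carry one label only). In AlphaSeq, yeast of one mating type display the scFv and yeast of the other type display the target. Pairs that bind mate more often; barcode pairs of the diploids are counted by sequencing. Read counts were normalised to the haploid input and turned into Kd by a linear fit to BCL2-family pairs of known affinity, for each replicate. Mating was done six times.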

Each variant is given by its three heavy chain CDRs, as the data file delimits them; those of the parent are GFTLNSYGIS, VIYSDGRRTFYGDSVK, GRAAGTFDS. Variants here have more than six changes. Affinities are written as log10 Kd with Kd in nM; a lower number is a better binder. Where no diploid with the target was found in that replicate, the entry reads "ND": below detection, most likely a poor binder, though not proof of it. Three control strains display no target. For all heavy chain designs, 1% of the pairings with them gave a signal, with a median of 2.08 and one signal in twenty below 0.84, so weak values seen in few replicates may be background. The parent sequence was in this pool as ten entries: three were never detected, three once, and four in most replicates, with averages from 0.34 to 2.37. The authors averaged sequences with at least three values out of six and counted those with two or fewer as poor binders. A sequence measured in both rounds can read differently, since the two assays cover different ranges.

With GFDLDEYGIS / VIYADGKRTAYTDSVK / GQNAGTFDV [En_Gen] the result was 0.05, -0.33, -0.56, -0.11, -0.59, -0.36.
With GFDLDEQGIS / VIYADGQRTAYADQVK / GMIGDIFRT [En_Gibbs] the result was ND, ND, ND, ND, ND, ND.
With GFNLNEYGIS / VIYADGMRTFYTDSVK / GENAGTFDV [En_HC] the result was 0.40, -0.11, -0.11, -0.34, -0.16, -0.01.
With GFNLDEYGIS / VIYADGMRTAYASKVK / GKVWWFLLM [En_Gibbs] the result was ND, ND, ND, ND, ND, ND.
With GFDLDEYGIS / VIYADGMRTAYSDSVK / GNQAGTFDV [En_Gen] the result was -0.44, -0.26, -0.21, -0.45, -0.26, -0.29.
With GFDLNEYGIS / VIYADGVRKAYSDSVK / GNVAGTFDI [En_Gen] the result was -0.31, -0.32, -0.16, -0.72, -0.43, -0.29.
With GFDLNEYGIS / VIYADGKRTAYADSVK / GNVAGTFDL [En_Gen] the result was -0.60, -0.82, -0.69, -0.74, -0.82, -0.77.
With GFDLNEYGIS / VIYADGARTAYADSVK / GENAGTFDV [En_Gen] the result was 0.04, -0.38, -0.54, -0.49, -0.58, 0.02.
With GFDLNEYGIS / VIYADGFRTAYADSVK / GNVAGTFDV [En_Gen] the result was -0.68, -0.48, -0.80, -0.74, -0.84, -0.38.
With GFDLNEYGIS / VIYADGVRTAYADDVK / GENAGTFDT [En_Gen] the result was -0.27, -0.62, -0.11, -0.46, -0.27, 0.22.
With GFDLDEYGIS / VIYADGMRTAYADSVK / GKVAGTFDV [En_Gen] the result was -0.16, -0.41, -0.50, -0.71, -0.31, -0.53.
With GDQLDEYGIS / VIYADGMRTAYADSFK / GNKSVNIGI [En_Gibbs] the result was ND, ND, ND, ND, ND, ND.
With GFDLDEYGIS / VIYADGMRTAYSDDVK / GEVAGTFDL [En_Gen] the result was 0.46, 0.08, 0.07, -0.38, -0.21, 0.24.
With GFDLNEYGIS / VIYADGQRTAYADDVK / GNNAGTFDQ [En_Gen] the result was 0.64, -0.13, 0.00, 0.02, -0.14, 0.13.
With GFDLNEYGIS / VIYADGMRTFYSDSVK / GEAAGTFDQ [En_HC] the result was -0.35, -0.34, -0.53, -0.52, -0.30, -0.23.
With GFDLNEYGIS / VIYADGQRTAYADKVK / GNVAGTFDQ [En_Gen] the result was 0.63, -0.47, 0.63, 0.08, -0.31, 0.96.
With GFDLNEYGIS / VIYADGRRTAYTDSVK / GNAAGTFLV [En_HC] the result was 0.33, 0.72, -0.36, 0.09, 0.13, 0.00.
With GFDLNEYGIS / VIYADGRRTAYADSVK / GNQAGTFDS [En_HC] the result was 0.04, -0.73, -0.90, -0.68, -0.42, -0.74.
With GFDLNEYGIS / VIYADGQRTAYTDSVK / GNVAGTFDL [En_Gen] the result was -2.00, -0.66, -1.92, -1.82, -2.01, -2.10.
With GFNLSEYGIS / VIYADGMRSNYADSFK / GKSNNFFID [En_Gibbs] the result was 3.16, ND, ND, ND, 0.88, ND.
With GFDLNEYGIS / VIYADGSRTAYADDVK / GNQAGTFDV [En_Gen] the result was 0.38, -0.74, -1.01, -0.17, -0.86, 0.28.
With GFDLEKYGIS / VIYADGSRSAYAQDVK / GGHAGGFHV [En_Gibbs] the result was ND, ND, ND, ND, ND, ND.
With GFDLNEYGIS / VIYADGRRTFYTDKVK / GGNAGTFDV [En_HC] the result was -0.52, -0.81, -0.94, -0.98, -0.92, -0.36.
With GFDLNEYGIS / VIYADGMRTYYADSVK / GQNAGTFDM [En_Gen] the result was -0.09, -0.16, 0.09, -0.34, -0.22, 0.08.
With GFDLNEYGIS / VIYADGMRTAYKDSVK / GNVAGTFDL [En_Gen] the result was -0.38, -0.45, -0.83, -0.99, -0.58, -0.49.
With GFDLDEYGIS / VIYADGMRTAYADSVK / GTVAGTFDV [En_Gen] the result was -0.58, -0.79, -0.84, -1.03, -0.89, -0.66.
With GFDLNEYGIS / VIYADGMRTSYADDVK / GNVAGTFDM [En_Gen] the result was -0.01, 1.09, 0.14, -0.19, -0.32, 0.22.
With GFDLNEYGIS / VIYADGRRTFYQDSVK / GNVAGTFDL [En_HC] the result was 0.22, -0.07, -0.18, -0.23, -0.27, 0.02.
With GFDLNEYGIS / VIYADGMRTAYADNVK / GNVAGTFDQ [En_Gen] the result was -0.34, -0.33, -0.54, -0.02, -0.12, 0.03.
With GFWLDEYGIS / VIYADGMRTAYKNSVK / GSFTYNFDV [En_Gibbs] the result was ND, ND, ND, ND, ND, ND.

For reference, 4 entries of the list once more:

CDR-H1,CDR-H2,CDR-H3,group,"log10 Kd, replicates"
GFDLDEYGIS,VIYADGKRTAYTDSVK,GQNAGTFDV,En_Gen,"0.05, -0.33, -0.56, -0.11, -0.59, -0.36"
GFDLNEYGIS,VIYADGRRTFYQDSVK,GNVAGTFDL,En_HC,"0.22, -0.07, -0.18, -0.23, -0.27, 0.02"
GFWLDEYGIS,VIYADGMRTAYKNSVK,GSFTYNFDV,En_Gibbs,"ND, ND, ND, ND, ND, ND"
GFDLNEYGIS,VIYADGMRTYYADSVK,GQNAGTFDM,En_Gen,"-0.09, -0.16, 0.09, -0.34, -0.22, 0.08"